Assays:
α-glucosidase = target: T1, α-glucosidase (Saccharomyces cerevisiae, UniProt P38158); experiment: biochemical
T1 construct: purchased Merck

Sequences of proteins named here, by UniProt entry; tags and fusion partners are left off. A change or cut given only in a name is not applied to a line headed by its entry.
UniProt P38158: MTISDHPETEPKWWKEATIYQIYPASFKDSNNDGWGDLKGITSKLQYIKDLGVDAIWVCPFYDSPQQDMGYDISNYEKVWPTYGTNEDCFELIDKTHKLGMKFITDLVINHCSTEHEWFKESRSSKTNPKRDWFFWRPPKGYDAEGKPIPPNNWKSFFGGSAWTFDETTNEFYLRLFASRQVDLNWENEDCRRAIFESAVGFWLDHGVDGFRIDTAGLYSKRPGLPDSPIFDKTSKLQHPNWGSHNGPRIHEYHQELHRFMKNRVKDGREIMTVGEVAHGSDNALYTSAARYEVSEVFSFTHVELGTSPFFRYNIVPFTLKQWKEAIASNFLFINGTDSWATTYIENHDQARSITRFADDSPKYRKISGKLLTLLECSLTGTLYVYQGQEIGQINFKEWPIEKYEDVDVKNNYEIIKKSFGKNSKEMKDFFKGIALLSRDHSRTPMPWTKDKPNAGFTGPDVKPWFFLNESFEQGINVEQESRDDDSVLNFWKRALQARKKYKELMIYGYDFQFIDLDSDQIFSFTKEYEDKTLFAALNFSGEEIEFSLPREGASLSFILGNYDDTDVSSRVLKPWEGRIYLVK

[1] = target: T2, porcine pancreatic amylase (Sus scrofa, UniProt P00690); experiment: α-Amylase inhibitory activity (starch/DNS); type: biochemical
T2 construct: purchased Merck
T2 sequence (P00690 16-511): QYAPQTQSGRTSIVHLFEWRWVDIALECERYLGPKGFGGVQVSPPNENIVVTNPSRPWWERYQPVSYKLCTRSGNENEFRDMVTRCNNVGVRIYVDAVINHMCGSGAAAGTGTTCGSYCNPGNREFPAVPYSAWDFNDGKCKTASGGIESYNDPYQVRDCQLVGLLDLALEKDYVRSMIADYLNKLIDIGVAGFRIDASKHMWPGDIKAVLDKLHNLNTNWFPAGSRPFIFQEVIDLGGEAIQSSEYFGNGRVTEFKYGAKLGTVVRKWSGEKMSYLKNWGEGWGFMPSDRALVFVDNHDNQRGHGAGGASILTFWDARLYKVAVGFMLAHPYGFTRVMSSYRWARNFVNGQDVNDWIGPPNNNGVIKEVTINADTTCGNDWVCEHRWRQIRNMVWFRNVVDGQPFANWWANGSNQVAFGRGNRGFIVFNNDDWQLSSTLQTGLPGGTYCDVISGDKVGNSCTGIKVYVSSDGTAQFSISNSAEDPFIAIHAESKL

Q: Which results are given for `BrCCSc1nnc(COc2cccc3cccnc23)o1` [4h, 2-[(2-Bromoethyl)thio]-5-[(quinolin-8-yloxy)methyl]-1,3,4-oxadiazole]?
A: IC50 (α-glucosidase): 46.1 µM; IC50 [1]: > 500 µM
